Ab-14 light chain CDR variants: yeast mating affinities

From the AlphaSeq antibody data of Engelhart et al. 2022 (doi:10.1038/s41597-022-01779-4), copy in the FLAb collection.

Target: peptide PDVDLGDISGINAS, taken from heptad repeat 2 (HR2) of SARS-CoV-2 spike.

Ab-14 is the parent antibody, in scFv form: VH, then the linker GGGGSGGGGSGGGGS, then VL. The heavy chain is unchanged in all variants.
VH: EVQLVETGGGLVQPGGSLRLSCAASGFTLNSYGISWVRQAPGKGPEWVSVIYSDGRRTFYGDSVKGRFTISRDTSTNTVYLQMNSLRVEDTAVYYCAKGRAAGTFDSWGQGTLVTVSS
VL: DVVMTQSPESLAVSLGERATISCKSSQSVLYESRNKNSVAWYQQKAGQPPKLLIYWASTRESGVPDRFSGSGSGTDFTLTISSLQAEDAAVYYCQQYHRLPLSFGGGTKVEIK

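Phage display of a naive human antibody library on the peptide gave the parent. Variants in AAYL50 differ from the parent at up to three CDR positions; double and triple changes were sampled at random. The scFvs were displayed on barcoded MATa yeast, the peptide on MATalpha yeast. After mating in shaken culture at 30 °C for 16 h, diploids were selected and their barcode pairs sequenced. A regression on co-assayed BCL2-family reference pairs converts the normalised counts of each replicate to an apparent Kd. The assay was run in three technical replicates.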

Positions count from residue 1 of the parent VL; L30N puts N in place of L.
Values are apparent Kd, the geometric mean of the replicates that gave a signal; lower means stronger binding.
"nd" marks a missing value. The strain was present, yet no cells mated with the target were sequenced in any replicate, which points to weak or no binding.
Parent in this assay: reference entry 4.4 nM, copy in this library 48 nM.
As a blank, each scFv also met three strains without target: over library AAYL50, 18% of these pairings were detected, typically at 15 µM and seldom below 970 nM.

changes	Kd (apparent)	replicates with signal
L30N N37D V39A	nd	0/3
S38M P101R L102N	nd	0/3
S58R Y97D L100N	16 µM	1/3
N35R A57V Y97I	1.1 µM	3/3
Q27G W56A L100K	nd	0/3
S26M V29M	1.2 µM	3/3
S25R Y97Q P101K	190 nM	3/3
E32Y H98T S103G	nd	0/3
S26M L100M	28 nM	3/3
Q27E S33D N37I	9.2 µM	2/3
S25M Q27C S28V	89 nM	3/3
S26D S38H S62W	120 nM	3/3
Y31L V39Y S103I	nd	0/3
E32V W56M L100A	nd	0/3
N37K S58R E61T	4.9 µM	1/3
S33P R34E V39T	2.1 mM	1/3
S33F K36I A57C	nd	0/3
K24V N37S T59Q	68 nM	3/3
K24M Q27D E61M	110 nM	3/3
S28K A40Q S103E	nd	0/3
V29Y R60V S103C	2.7 µM	2/3
R34P T59N E61C	6.5 nM	3/3
S38E Q96I R99L	200 µM	1/3
K24M S25Y S28V	53 µM	1/3
S33Q R34T	7.1 µM	2/3
S25T T59D	5.9 nM	3/3
E32K S33K V39L	2.9 µM	1/3
N35S Q96I S103D	330 nM	1/3
S28Y R60T L100W	530 nM	3/3
S33H S62P Q96C	2.3 µM	3/3
S38R R60K S103T	10 µM	2/3
L30Q E61M L100F	7.2 nM	3/3
L30M H98P L100A	670 nM	3/3
Y31R A40T R99D	2.3 µM	1/3
V29P L30H A40E	2.0 µM	1/3
Q27E V29K T59D	140 nM	3/3
V29C N35T R60I	nd	0/3
S28N Y31K Q96P	6.6 nM	3/3
V29L S38Q T59E	nd	0/3
S28I Y97G S103H	8.8 µM	2/3
S26W S33R S62D	150 nM	3/3
S38V T59V Q95P	nd	0/3
V39R R60T L102W	nd	0/3
S26G V29P Y97N	nd	0/3
S25E E32P W56C	990 nM	3/3
K36G V39G P101V	11 µM	3/3
Q95M Q96Y L100Q	1.6 µM	1/3
V39M T59R L102G	nd	0/3
S38Q W56T R99N	nd	0/3
Y31N Y97I	40 nM	1/3
K36I S58D R99C	540 nM	3/3
K24Y W56M Y97E	nd	0/3
S25W S62C H98K	110 nM	3/3
N35M Q96V L102I	26 nM	3/3
W56N Q95I Y97P	3.8 nM	3/3
N37G S58A R99N	25 µM	2/3
N37M R60P Q96I	32 µM	3/3
N35V S38V	nd	0/3

The first 9 entries again:

{"changes": "L30N N37D V39A", "Kd (apparent)": "nd", "replicates with signal": "0/3"}
{"changes": "S38M P101R L102N", "Kd (apparent)": "nd", "replicates with signal": "0/3"}
{"changes": "S58R Y97D L100N", "Kd (apparent)": "16 µM", "replicates with signal": "1/3"}
{"changes": "N35R A57V Y97I", "Kd (apparent)": "1.1 µM", "replicates with signal": "3/3"}
{"changes": "Q27G W56A L100K", "Kd (apparent)": "nd", "replicates with signal": "0/3"}
{"changes": "S26M V29M", "Kd (apparent)": "1.2 µM", "replicates with signal": "3/3"}
{"changes": "S25R Y97Q P101K", "Kd (apparent)": "190 nM", "replicates with signal": "3/3"}
{"changes": "E32Y H98T S103G", "Kd (apparent)": "nd", "replicates with signal": "0/3"}
{"changes": "S26M L100M", "Kd (apparent)": "28 nM", "replicates with signal": "3/3"}